Laboratory results taken from US11008620B2, “Methods for treating cancer resistant to ErbB therapeutics” (Dana-Farber Cancer Institute, Inc., priority 2007, dated 2021).
“Also recorded” adds a separate entry of the source.

Columns and labels:
Assay type in all cases: cell-based
HCC827 cell line = assay: phospho-receptor tyrosine kinase (RTK) array, HCC827; settings: 1 μM gefitinib
HCC827 GR5 cells = assay: phospho-receptor tyrosine kinase (RTK) array, HCC827 GR5; settings: HCC827 GR cells; 1 μM gefitinib
HCC827 parental cells = assay: apoptosis by cleaved PARP immunoblot, parental HCC827 cells; settings: parental HCC827 cells (FIG. 7)
[1] = tested on: ERBB3 and Gab1 association with p85 in HCC827 GR cells; assay: anti-p85 immunoprecipitation in HCC827 GR cells; settings: 1 μM each drug, 6 hours (FIG. 2C)
[2] = tested on: ERBB3 and Gab1 association with p85 in HCC827 cell line; assay: anti-p85 immunoprecipitation in parental HCC827 cell line; settings: 1 μM gefitinib, 6 hours (FIG. 2C)

COc1cc2ncnc(Nc3ccc(F)c(Cl)c3)c2cc1OCCCN1CCOCC1 [gefitinib]
phosphorylation of EGFR, ERBB3, ERBB2 and MET (RTK array) (HCC827 cell line): completely or markedly reduced | phosphorylation of MET, ERBB3 and EGFR (RTK array) (HCC827 GR5 cells): marked phosphorylation of MET and persistent phosphorylation of ERBB3 and EGFR | apoptosis (cleaved PARP) (HCC827 parental cells): sufficient to induce apoptosis | co-precipitation of ERBB3 and Gab1 with p85 [1]: still co-precipitated with p85 | co-precipitation of ERBB3 and Gab1 with p85 [2]: Both interactions were disrupted; also recorded: abrogated
